Tests used:
[1] = Alcohol solubility tested (200 proof ethanol, 0.22 micrometer PTFE filter); format: physicochemical
Excerpt: The following table lists the relative solubility of exemplary components of a formulation. A number of different dyes are listed along with their solubility information taken from the various literature sources and tested experimentally (200 proof ethanol and filtered through a 0.22 micrometer PTFE filter).

[2] = cited from earlier work

O=S(=O)([O-])c1ccc(N=Nc2c(O)ccc3cc(S(=O)(=O)[O-])ccc23)cc1.[Na+].[Na+] [Yellow #6]
Yes: Alcohol Solubility (tested) [1] | Alcohol Solubility (Literature) [2] | Water Solubility [2]

Reference: patent US10172797B2, “Extruded extended release abuse deterrent pill” (Pharmaceutical Manufacturing Research Services, Inc., priority 2013, dated 2019)
